The text below walks through data of USRE47689E1, “Compounds for treating spinal muscular atrophy” (PTC Therapeutics, Inc., priority 2011, dated 2019).

Where a name gives a salt, the structure may show the parent alone.

Test [1] concerns SMN2 minigene (full length SMN2 minigene mRNA containing SMN2 exon 7). As to the kind of experiment: SMN2 minigene mRNA splicing RT-qPCR assay in cultured cells. In kind it is cell-based. The settings on record: Homo sapiens, HEK293-H, 24 h, read-out: EC1.5x for production of full length SMN2 mRNA. The method, then:
The reverse transcription-quantitative PCR-based (RT-qPCR) assay is used to quantify the level of the full length SMN2 minigene mRNA containing SMN2 exon 7 in a HEK293H cell line stably transfected with said minigene and treated with a test compound.
Protocol. HEK293H cells stably transfected with the SMN2-A minigene construct described above (10,000 cells/well) are seeded in 200 μL of cell culture medium (DMEM plus 10% FBS, with 200 μg/mL hygromycin) in 96-well flat-bottom plates and the plate is immediately swirled to ensure proper dispersal of cells, forming an even monolayer of cells. Cells are allowed to attach for at least 4-6 hours. […] A solution of test compound (1 μL, 200× in DMSO) is added to each cell-containing well and the plate is incubated for 24 hours in a cell culture incubator (37° C., 5% CO2, 100% relative humidity). 2 replicates are prepared for each test compound concentration. The cells are then lysed in Cells-To-Ct lysis buffer and the lysate is stored at −80° C.
The combination of these three oligonucleotides detects only SMN1 or SMN2 minigenes (RT-qPCR) and will not detect endogenous SMN1 or SMN2 genes. […]
The amplification efficiency E is calculated from the slope of the amplification curve for SMN2mini FL and GAPDH individually. The abundances of SMN2mini FL and GAPDH are then calculated as […], where Ct is the threshold value for each amplicon. […]
(Quantitative PCR measures a nucleic acid by following its amplification.)

The next test concerns Smn protein. The test can be described thus: Smn protein assay in cultured cells (SMN HTRF). Format: cell-based, human. As to conditions: SMA patient fibroblast cells, 48 hours, 7-point concentration data, fold increase relative to vehicle control (SMN HTRF). The method, then:
The SMN HTRF (homogeneous time resolved fluorescence) assay is used to quantify the level of Smn protein in SMA patient fibroblast cells treated with test compounds.
Protocol. Cells are thawed and cultured in DMEM-10% FBS for 72 hours. Cells are trypsinized, counted and resuspended to a concentration of 25,000 cells/mL in DMEM-10% FBS. […] 1 μL of test compound solution is transferred to cell-containing wells and cells are incubated for 48 hours in a cell culture incubator (37° C., 5% CO2, 100% relative humidity). Triplicate samples are set up for each test compound concentration. […] Fluorescence for each well of the plate at 665 nm and 620 nm is measured on an EnVision multilabel plate reader (Perkin-Elmer).
The normalized fluorescence signal is calculated for each sample, Blank and vehicle control well by dividing the signal at 665 nm by the signal at 620 nm. Normalizing the signal accounts for possible fluorescence quenching due to the matrix effect of the lysate. The ΔF value (a measurement of Smn protein abundance) for each sample well is calculated by subtracting the normalized average fluorescence for the Blank control wells from the normalized fluorescence for each sample well and then dividing this difference by the normalized average fluorescence for the Blank control wells. […]
Background: In TR-FRET formats the signal depends on donor and acceptor labels being close together.

As for `O=C(Nc1ccccc1)c1cc2ccc(N3CCNCC3)cc2oc1=O` [Cpd 3, 2-oxo-N-phenyl-7-(piperazin-1-yl)-2H-chromene-3-carboxamide trifluoroacetate], the EC (1.5-fold) in test [1] lay in the range of 1 to 3 µM. In addition, the “maximum fold (Fold) increase of Smn protein” value with Smn protein was “* (maximum fold increase of ≤1.2)”.
